In the library only some 1.6% were active in any assay of this set; here they are far more common.
ARNT-TACC3 inh: disrupts binding between human ARNT and TACC3; AlphaScreen His-ARNT PAS-B/GST-TACC3 binding, luminescence; TACC3 fragment carries E629A point mutation; actives 0.66% (n = 390,000); AID 623870; inhibition, % at 9.99 µM;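 active means mean inhibition of replicates at least 50% and at least half of replicates each reaching 50%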;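 further: 0% = complete ARNT plus TACC3 wells and 100% = ARNT alone without TACC3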
CAL PDZ FP-1: blocks peptide binding to human CAL PDZ domain; Q9HD26; purified CAL PDZ, TMR-peptide fluorescence polarization, 1 h; actives 0.02% (n = 330,000); inhibition, % at 20 µM;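 active means highest replicate inhibition of at least 40%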;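 further: plate controls were DMSO neutral control wells for no effect and unlabeled competitor peptide control wells for full effect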
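Test system: tagged CAL PDZ domain / Buffer or medium: sodium phosphate/NaCl buffer pH 7.4 with TCEP, IgG, Thesit / Reagent: TMR-labelled reporter peptide T*-PRC34 bound in PDZ groove / Compound dosing: single point, 20 µM / Schedule: 1 h incubation at room temperature before polarization reading / Technique: fluorescence polarization (mP) / Benchmarks: unlabelled peptide, DMSO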
PglD DTNB: inhibitors of Campylobacter jejuni PglD acetyltransferase | inhibition, % at 12.5 µM | purified PglD enzyme, DTNB colorimetric CoA detection | actives 0.098% (n = 360,000); in the data active means inhibition above about 16%, passing the limit was not always enough
Vif imaging: inhibitors of HIV Vif | HEK293T cells, Vif self-association by quenched fluorescence, imaging, 24 h | inhibition, % at 7.49 µM | actives 0.35% (n = 340,000) | AID 602346; in the data active means inhibition above about 50%, passing the limit was not always enough
CAL PDZ FP-2: CAL PDZ (human) peptide binding inhibition; Q9HD26; purified CAL PDZ, TMR-peptide fluorescence polarization, 1 h; inhibition, % at 24.9 µM; actives 0.92% (n = 300,000); AID 602252;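 active means mean inhibition of at least 30% with at least half of replicates also reaching 30%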;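 further: 0% = DMSO neutral control and 100% = excess unlabeled competitor peptide PRC23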
Yeast UUG start-1: yeast start codon fidelity modulation; AID 602363; activity score, % at 18.7 µM; S. cerevisiae UUG-firefly luciferase reporter, luminescence/redox ratio; 0.13% of 350,000 active;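 active means replicate mean at a twofold rise or more, about +100% in these data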;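 further: firefly luciferase made from a UUG start codon reports start codon fidelity; reporter light over untreated wells divided by growth signal over untreated wells; some hits fall short of that in this replicate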
Yeast UUG start-2: alters UUG start codon use in yeast; shares compounds with Yeast UUG start-1; S. cerevisiae UUG-start firefly luciferase, luminescence, 4 h; 100% means double the DMSO signal; activation, % at 38 µM; 540 tested, under 10 active; AID 652061;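 active means signal increase whose fitted curve reaches an absolute level of 40 at a concentration under 10 µM; inactive means activity opposite to the expected increase, or the rest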
Starred values were filed as active, the others as inactive; i = inactive; . = no result given.

| nr | Molecule | PglD DTNB | CAL PDZ FP-1 | ARNT-TACC3 inh | CAL PDZ FP-2 |
| --- | --- | --- | --- | --- | --- |
| 1 | Cc1ccc(S(=O)(=O)N(C)C[C@H]2Oc3ncc(Br)cc3C(=O)N([C@@H](C)CO)C[C@H]2C)cc1 | -33 | . | 0 | . |
| 2 | Cc1ccc(S(=O)(=O)N(C)C[C@@H]2Oc3ncc(-c4ccncc4)cc3C(=O)N([C@@H](C)CO)C[C@H]2C)cc1 | 0 | . | -3 | . |
| 3 | C[C@H]1CCCCO[C@H](CN(C)Cc2ccc3c(c2)OCO3)[C@@H](C)CN([C@@H](C)CO)C(=O)c2cc(NS(=O)(=O)c3cccs3)ccc2O1 | -3 | . | -5 | . |
| 4 | Cn1nc(CC(=O)N2CCN(c3ccccc3)CC2)c2ccccc2c1=O | 0 | -3 | -1 | -1 |
| 5 | CC1CCN(C(=O)Cc2nn(C)c(=O)c3ccccc23)CC1 | 7 | -1 | -15 | -2 |
| 6 | CN(C)c1ccc(C=NCCC2(O)CCOC(C)(C)C2)cc1 (stereo not drawn) | -3 | 1 | -1 | -1 |
| 7 | COc1ccccc1C1(CCN=Cc2ccc(N(C)C)cc2)CCOC(C)(C)C1 (stereo not drawn) | 7 | 0 | 2 | 8 |
| 8 | C[C@H]1CCCCO[C@H](CN(C)C(=O)C2CCCCC2)[C@@H](C)CN([C@@H](C)CO)C(=O)c2cc(NC(=O)Nc3ccc(C(F)(F)F)cc3)ccc2O1 | 3 | . | 3 | . |

| nr | Yeast UUG start-1 | Vif imaging | Yeast UUG start-2 |
| --- | --- | --- | --- |
| 1 | 108* | . | i |
| 2 | 200* | . | i |
| 3 | 32 | . | . |
| 4 | -8 | -3 | -2 |
| 5 | -9 | 19 | 4 |
| 6 | 118* | 1 | -2 |
| 7 | 15 | 1 | . |
| 8 | -17 | . | . |

Later entries:
| nr | Molecule | PglD DTNB | CAL PDZ FP-1 | ARNT-TACC3 inh | CAL PDZ FP-2 |
| --- | --- | --- | --- | --- | --- |
| 9 | O=C(NCC[C@H]1CC[C@H](NS(=O)(=O)c2cccc(F)c2)[C@H](CO)O1)c1cnccn1 | 0 | . | -10 | . |
| 10 | O=C(Nc1ccc(Cl)cc1)N[C@H]1CC[C@H](CCNC(=O)c2ccccc2F)O[C@H]1CO | 7 | . | -26 | . |
| 11 | O=C(NCC[C@H]1CC[C@H](NC(=O)c2cnccn2)[C@H](CO)O1)Nc1ccc(F)cc1 | -3 | . | -11 | . |
| 12 | O=C(NCC[C@@H]1CC[C@H](NC(=O)c2cnccn2)[C@@H](CO)O1)Nc1ccc(F)cc1 | -3 | . | -7 | . |
| 13 | O=C(NCC[C@H]1CC[C@@H](NS(=O)(=O)c2cccc(F)c2)[C@@H](CO)O1)c1cnccn1 | -1 | . | -10 | . |
| 14 | COC(=O)C[C@@H]1CC[C@@H]2[C@H](COc3ccc(NC(=O)c4cscn4)cc3C(=O)N2C)O1 | -2 | . | 3 | . |
| 15 | C#CCOCCOCCOCCNc1nc(N2CCN(C(=O)[C@H](CCCN=C(N)N)n3cc(C(N)[C@H](C)CC)nn3)CC2)nc(N2CCN(C(=O)[C@H](CC(N)=O)n3cc(C(N)[C@@H](C)CC)nn3)CC2)n1 (stereo partly drawn) | 3 | 1 | 24 | -5 |
| 16 | C#CCOCCOCCOCCNc1nc(N2CCN(C(=O)[C@H](CCC(=O)O)n3cc(C(N)Cc4ccc(O)cc4)nn3)CC2)nc(N2CCN(C(=O)[C@H](CCC(=O)O)n3cc(C(N)[C@H](C)CC)nn3)CC2)n1 (stereo partly drawn) | -6 | 0 | 5 | -3 |

| nr | Yeast UUG start-1 | Vif imaging | Yeast UUG start-2 |
| --- | --- | --- | --- |
| 9 | 113* | . | i |
| 10 | 91* | . | i |
| 11 | -2 | . | . |
| 12 | 159* | . | i |
| 13 | 90 | . | . |
| 14 | 3 | . | . |
| 15 | 121* | 0 | -3 |
| 16 | 112* | -1 | 10 |

Sorted by number of heavy atoms (ascending): some entries from above.
| nr | Molecule | PglD DTNB | CAL PDZ FP-1 | ARNT-TACC3 inh | CAL PDZ FP-2 |
| --- | --- | --- | --- | --- | --- |
| 13 | O=C(NCC[C@H]1CC[C@@H](NS(=O)(=O)c2cccc(F)c2)[C@@H](CO)O1)c1cnccn1 | -1 | . | -10 | . |
| 14 | COC(=O)C[C@@H]1CC[C@@H]2[C@H](COc3ccc(NC(=O)c4cscn4)cc3C(=O)N2C)O1 | -2 | . | 3 | . |
| 8 | C[C@H]1CCCCO[C@H](CN(C)C(=O)C2CCCCC2)[C@@H](C)CN([C@@H](C)CO)C(=O)c2cc(NC(=O)Nc3ccc(C(F)(F)F)cc3)ccc2O1 | 3 | . | 3 | . |

| nr | Yeast UUG start-1 | Vif imaging | Yeast UUG start-2 |
| --- | --- | --- | --- |
| 13 | 90 | . | . |
| 14 | 3 | . | . |
| 8 | -17 | . | . |

Later entries
| nr | Molecule | PglD DTNB | CAL PDZ FP-1 | ARNT-TACC3 inh | CAL PDZ FP-2 |
| --- | --- | --- | --- | --- | --- |
| 17 | C#CCOCCOCCOCCNc1nc(N2CCN(C(=O)[C@H]([C@@H](C)CC)n3cc([C@@H](N)Cc4ccc(O)cc4)nn3)CC2)nc(N2CCN(C(=O)[C@H](Cc3ccc(O)cc3)n3cc([C@@H](N)C(C)CC)nn3)CC2)n1 (stereo partly drawn) | 3 | 0 | -2 | -16 |
| 18 | O=C(Cc1cccnc1)N1[C@@H](CO)[C@@H]2c3ccccc3NC[C@@H]21 | 0 | . | 9 | . |
| 19 | COc1ccc(NC(=O)Nc2ccc3c(c2)C(=O)N([C@@H](C)CO)C[C@H](C)[C@H](CN(C)Cc2ccc4c(c2)OCO4)OCCCC[C@H](C)O3)cc1 | -1 | . | 11 | . |
| 20 | O=C1CCCCCN1C(=O)c1ccccc1 | . | 0 | -2 | 0 |
| 21 | CC(C)(C)c1ccc(C(=O)N2CCCCCC2=O)cc1 | 2 | -2 | -2 | 1 |
| 22 | Cc1noc(C)c1S(=O)(=O)Nc1ccc2c(c1)C(=O)N([C@H](C)CO)C[C@H](C)[C@H](CN(C)S(=O)(=O)c1cccs1)OCCCC[C@H](C)O2 | 4 | . | 6 | . |
| 23 | N#Cc1ccccc1OCc1cn(CC(=O)c2ccc(O)cc2)nn1 | 2 | -1 | 3 | 2 |
| 24 | C=C(C)C(=O)Nc1ccc(OC(F)(F)C(F)F)c(NC(=O)C(=C)C)c1 | 4 | -1 | 1 | -5 |

| nr | Yeast UUG start-1 | Vif imaging | Yeast UUG start-2 |
| --- | --- | --- | --- |
| 17 | 9 | 2 | . |
| 18 | -13 | . | . |
| 19 | 12 | . | . |
| 20 | . | 12 | . |
| 21 | 279* | . | 9 |
| 22 | -7 | . | . |
| 23 | 152* | 1 | 11 |
| 24 | 635* | 5 | -6 |

(list continues)
| nr | Molecule | PglD DTNB | CAL PDZ FP-1 | ARNT-TACC3 inh | CAL PDZ FP-2 |
| --- | --- | --- | --- | --- | --- |
| 25 | N#Cc1ccccc1CN1C(=O)NC(Cc2c[nH]c3ccccc23)C1=O (stereo not drawn) | -2 | 0 | 33 | 11 |
| 26 | O=C1NC(Cc2c[nH]c3ccccc23)C(=O)N1Cc1ccccc1 (stereo not drawn) | -3 | -2 | -1 | -1 |
| 27 | Cc1noc(C)c1S(=O)(=O)Nc1cccc2c1O[C@H](CN(C)C(=O)Nc1cccc3ccccc13)[C@H](C)CN([C@@H](C)CO)C2=O | 1 | . | 7 | . |
| 28 | COc1cc(SC)ccc1C(=O)Nc1ccccc1C#N | 3 | -1 | -1 | 0 |
| 29 | COc1ccc(CN2CCN(C(=O)c3cccc4ccccc34)CC2)c(OC)c1OC | 7 | 1 | 4 | -7 |
| 30 | COc1cccc(C(=O)N2CCN(C(=O)c3cccc4ccccc34)CC2)c1OC | -1 | 0 | -5 | . |
| 31 | CN(C)C1=NC[C@H](Cc2ccccc2)N1CCCC1CCCC1 | -3 | -1 | -9 | 0 |
| 32 | CC=Cc1ccc2n(c1=O)C[C@H]1[C@H](CO)[C@@H](C(=O)NCCC)[C@@H]2N1S(=O)(=O)c1cn(C)cn1 (mixture of isomers) | 2 | . | . | . |

| nr | Yeast UUG start-1 | Vif imaging | Yeast UUG start-2 |
| --- | --- | --- | --- |
| 25 | 588* | -3 | 10 |
| 26 | -12 | -4 | . |
| 27 | 0 | . | . |
| 28 | 501* | 27 | 4 |
| 29 | 146* | 4 | -1 |
| 30 | -1 | 12 | . |
| 31 | 151* | 2 | 1 |
| 32 | . | . | . |

(further entries)
| nr | Molecule | PglD DTNB | CAL PDZ FP-1 | ARNT-TACC3 inh | CAL PDZ FP-2 |
| --- | --- | --- | --- | --- | --- |
| 33 | Cn1c(=O)[nH]c(=O)c2c1nc(Br)n2C/C=N/Nc1ccccc1 | -6 | 1 | 8 | 6 |
| 34 | Cn1c(=O)[nH]c(=O)c2c1nc(Br)n2C/C=N/NC(=O)c1ccccc1 | -1 | -2 | 1 | -2 |
| 35 | C[C@H]1CN([C@@H](C)CO)C(=O)c2cc(NC(=O)NC3CCCCC3)ccc2O[C@@H]1CN(C)S(=O)(=O)c1ccc(Cl)cc1 | -2 | . | -4 | . |
| 36 | CCOC(=O)C1CCN(C(=O)C(=O)c2cn(CC(=O)N3CCCCCC3)c3ccccc23)CC1 | 4 | -3 | -9 | -3 |
| 37 | O=C(O)Cn1cc(C(=O)C2CC2)c2ccccc21 | 2 | . | -8 | 9 |

| nr | Yeast UUG start-1 | Vif imaging | Yeast UUG start-2 |
| --- | --- | --- | --- |
| 33 | -6 | 28 | . |
| 34 | 136* | 4 | 0 |
| 35 | 1 | . | . |
| 36 | 6 | -11 | . |
| 37 | -5 | 1 | . |
